From patent US10435642B2, “Ionic liquids containing symmetric quaternary phosphonium cations and phosphorus-containing anions, and their use as lubricant additives” (UT-Battelle, LLC, priority 2014, dated 2019)

| Substance | Oil-solubility in Chevron SAE 10 W base oil (Chevron SAE 10 W base oil) [wt %] | Oil-solubility in Shell GTL 4 cSt base oil (Shell GTL 4 cSt base oil) [wt %] | Oil-solubility in ExxonMobil PAO 4 cSt base oil (ExxonMobil PAO 4 cSt base oil) [wt %] | Oil solubility (Table 2) |
| --- | --- | --- | --- | --- |
| tetraoctylphosphonium bis(2-ethylhexyl)phosphate [[P8888][DEHP]] | >50 | >50 | – | – |
| tributyltetradecylphosphonium bis(2-ethylhexyl)phosphate [[P44414][DEHP]] | – | – | <1 | less than 1% |
